Target: human Factor XIa (Homo sapiens (Human), UniProt P03951)
Test: Factor XIa Assay (fluorogenic substrate GPR-AFC)
Type: biochemical
Settings: read-out: FXIa IC50
Method: The effectiveness of a compound of the present invention as an inhibitor of Coagulation Factor XIa can be determined using a relevant purified serine protease, and an appropriate synthetic substrate. The rate of hydrolysis of the chromogenic or fluorogenic substrate by the relevant serine protease was measured both in the absence and presence of compounds of the present invention. Assays were conducted at room temperature or at 37° C. […] A decrease in the rate of fluorescence change in the presence of inhibitor is indicative of enzyme inhibition. Such methods are known to one skilled in the art. The results of this assay are expressed as the half-maximal inhibitory concentrations (IC50), or the inhibitory constant, Ki.
Compounds were pre-incubated for 30 minutes at 25° C. with human (0.04 nM) Factor XIa in 50 mM HEPES buffer with 150 mM sodium chloride, 5 mM calcium chloride, 0.1% PEG 8000, pH 7.4. […] The % inhibition for each data point was calculated from the data and analyzed using the log (inhibitor) vs. response four parameters equation to determine the half-maximal inhibitory concentrations (IC50). The IC50 were converted to equilibrium inhibitory constants (Ki) using the Cheng-Prusoff equation.

The chains behind the UniProt entries cited, without tags or fusion partners. Residues count along the entry.
UniProt P03951, 19-387 partner limits assumed: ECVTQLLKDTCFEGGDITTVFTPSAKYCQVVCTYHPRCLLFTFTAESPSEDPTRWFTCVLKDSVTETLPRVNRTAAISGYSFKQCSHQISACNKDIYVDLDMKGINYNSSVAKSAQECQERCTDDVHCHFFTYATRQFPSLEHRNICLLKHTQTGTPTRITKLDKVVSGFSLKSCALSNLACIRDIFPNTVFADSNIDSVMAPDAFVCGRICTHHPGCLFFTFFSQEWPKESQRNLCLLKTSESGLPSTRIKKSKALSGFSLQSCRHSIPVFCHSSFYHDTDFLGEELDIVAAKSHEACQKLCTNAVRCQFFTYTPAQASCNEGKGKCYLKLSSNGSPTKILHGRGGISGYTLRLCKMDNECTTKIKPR
UniProt P03951, 388-625 limits assumed: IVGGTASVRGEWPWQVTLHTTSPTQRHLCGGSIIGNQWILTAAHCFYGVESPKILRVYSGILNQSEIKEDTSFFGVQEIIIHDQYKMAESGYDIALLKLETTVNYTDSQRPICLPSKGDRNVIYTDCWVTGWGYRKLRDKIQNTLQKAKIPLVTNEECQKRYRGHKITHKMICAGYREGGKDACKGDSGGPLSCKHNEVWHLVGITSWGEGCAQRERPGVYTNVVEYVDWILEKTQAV

- IC50: 1.12 µM
Substance: 6-(3-Chloro-6-(difluoromethyl)-2-fluorophenyl)-N (1-(1-(5-fluoro-4-methyl-6-((1R,5S)-2-oxo-3-azabicyclo[3.1.0]hexan-3-yl)pyridin-3-yl)ethyl)-1H-pyrazol-4-yl)pyrazine-2-carboxamide [Example 44]

From US20230286958A1, “PLASMA KALLIKREIN INHIBITORS” (Merck Sharp & Dohme LLC, priority 2020, published 2023)
